Where “and” joins values, the source holds several entries; their conditions need not be identical. Identical values can stand only once. Like-named read-outs stand apart in the source and are kept apart here.
Molecular target: full-length PKG1α (human PKG1α2–671) (Homo sapiens, UniProt Q13976)

Amino acid sequences for entries named in this document (tags omitted). Residues count along the entry.
UniProt Q13976, 2-671: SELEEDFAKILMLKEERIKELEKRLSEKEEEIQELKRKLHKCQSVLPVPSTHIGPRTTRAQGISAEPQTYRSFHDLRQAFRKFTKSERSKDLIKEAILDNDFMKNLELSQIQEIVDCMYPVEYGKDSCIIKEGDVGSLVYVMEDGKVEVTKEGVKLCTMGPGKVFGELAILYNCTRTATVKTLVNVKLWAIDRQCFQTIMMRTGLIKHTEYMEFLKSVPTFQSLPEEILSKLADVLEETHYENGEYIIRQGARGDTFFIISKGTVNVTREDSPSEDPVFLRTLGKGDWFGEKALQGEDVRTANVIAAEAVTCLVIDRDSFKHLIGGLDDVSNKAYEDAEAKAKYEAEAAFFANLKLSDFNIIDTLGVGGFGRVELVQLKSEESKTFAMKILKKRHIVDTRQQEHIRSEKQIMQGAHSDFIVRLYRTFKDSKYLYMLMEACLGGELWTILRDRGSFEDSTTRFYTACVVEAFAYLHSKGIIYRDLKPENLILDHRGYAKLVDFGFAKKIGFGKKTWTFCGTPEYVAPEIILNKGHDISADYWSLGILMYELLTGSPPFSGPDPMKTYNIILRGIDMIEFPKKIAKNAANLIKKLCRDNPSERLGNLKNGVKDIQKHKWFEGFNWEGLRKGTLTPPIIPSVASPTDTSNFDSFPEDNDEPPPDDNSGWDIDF

Nc1nc2c(ncn2[C@@H]2O[C@@H]3COP(=O)(O)O[C@H]3[C@H]2O)c(=O)[nH]1 [cGMP, Cyclic guanosine monophosphate]
V0: ~ 0.25 μmol min^−1 mg^−1 | cGMP EC20, activation of full length PKG1α (4-parameter fit of initial velocities): 10 nM and ~ 10 nM | V0 (partial activation at EC20, 10 nM cGMP): ~ 0.13 μmol min^−1 mg^−1

— PMC10390508, “Structural insights into selective small molecule activation of PKG1α” (Communications Biology, 2023)
